Among the data in ChEMBL document CHEMBL1145940, “Computer modeling of selective regions in the active site of nitric oxide synthases: implication for the design of isoform-selective inhibitors” (J Med Chem, 2003) are Ki and Selectivity values, retold here.

The structures appear in SMILES notation.

Assay [1] can be described thus: Inhibitory activity against endothelial nitric oxide synthase (eNOS).
A short description of assay [2]: Inhibitory activity against neuronal nitric oxide synthase.
Assay [3] can be described thus: Inhibitory activity against Inducible nitric oxide synthase.
Assay [4] is described as follows: Selectivity for neuronal over endothelial nitric oxide synthase.

`NCCc1cccc(NC[C@@H](N)CCC/N=C(\N)N[N+](=O)[O-])c1`: the Ki amounted to 100 µM in assay [1], 2210 nM in assay [2] and 260 µM in assay [3]. In addition, the Selectivity in assay [4] was 45.2.
For the compound `NCCc1ccc(NC[C@@H](N)CCC/N=C(\N)N[N+](=O)[O-])cc1`, the Ki in assay [1] was determined as 414 µM; in assay [3], 360 µM.
